Data from PubChem BioAssay AID2776 (Johns Hopkins Ion Channel Center, 2010).
This is a selection; strong and weak results do not stand in their true shares. The source made the active and inactive calls.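 How the source made its calls: active means compounds whose fluorescence signal differed from control wells by over 3 SD, either direction, in both duplicate plates; inactive means the rest.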

Amino acid sequences for entries named in this document (tags omitted).
UniProt Q9QUQ5, whole entry: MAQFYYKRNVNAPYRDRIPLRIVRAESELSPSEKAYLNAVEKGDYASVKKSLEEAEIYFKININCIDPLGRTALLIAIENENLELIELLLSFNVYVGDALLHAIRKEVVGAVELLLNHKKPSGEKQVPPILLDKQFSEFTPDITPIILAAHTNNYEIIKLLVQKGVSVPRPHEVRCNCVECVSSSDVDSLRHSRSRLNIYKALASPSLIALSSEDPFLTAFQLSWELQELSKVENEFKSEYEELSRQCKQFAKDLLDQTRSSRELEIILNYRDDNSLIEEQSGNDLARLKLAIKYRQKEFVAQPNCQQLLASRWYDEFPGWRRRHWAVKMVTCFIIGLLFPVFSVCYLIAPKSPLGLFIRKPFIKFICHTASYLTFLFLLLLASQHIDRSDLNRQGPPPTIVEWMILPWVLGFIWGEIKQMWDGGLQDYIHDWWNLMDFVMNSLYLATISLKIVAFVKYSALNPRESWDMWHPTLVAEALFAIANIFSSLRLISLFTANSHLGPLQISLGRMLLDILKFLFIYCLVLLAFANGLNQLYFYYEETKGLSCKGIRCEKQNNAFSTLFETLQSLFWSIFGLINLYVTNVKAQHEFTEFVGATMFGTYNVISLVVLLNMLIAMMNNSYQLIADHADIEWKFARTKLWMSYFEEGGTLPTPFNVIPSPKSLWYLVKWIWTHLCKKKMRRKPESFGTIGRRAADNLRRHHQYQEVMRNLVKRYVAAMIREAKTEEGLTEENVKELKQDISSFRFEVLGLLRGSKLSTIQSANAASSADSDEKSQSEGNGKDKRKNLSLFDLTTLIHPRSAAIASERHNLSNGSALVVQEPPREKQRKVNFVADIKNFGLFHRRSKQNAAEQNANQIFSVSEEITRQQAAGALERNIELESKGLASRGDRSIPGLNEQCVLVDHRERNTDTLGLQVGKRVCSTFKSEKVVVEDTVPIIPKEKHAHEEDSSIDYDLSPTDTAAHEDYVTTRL

Molecular target: Short transient receptor potential channel 4 (Mus musculus) (UniProt Q9QUQ5)
Experiment: mouse TRPC4 membrane potential modulation by TRPC6 hits, confirmation, selectivity assay for TRPC6 inhibitor project, cell-based, second specificity screen, HEK293 TRPC4/mu-opioid (AID 2776)
Settings: HEK293 TRPC4/MOR, membrane potential dye fluorescence; at 10 µM; channel activated by saturating DAMGO dose

SMILES | outcome
O=C(OC1CN2CCC1CC2)C1c2ccccc2Oc2ccccc21 (configuration not stated) | inactive
CCC(CO)(C(=O)OC1CN2CCC1CC2)c1ccccc1 (configuration not stated) | inactive
